Measured values from patent US20160319265.

B1: unnamed (protein)
chain: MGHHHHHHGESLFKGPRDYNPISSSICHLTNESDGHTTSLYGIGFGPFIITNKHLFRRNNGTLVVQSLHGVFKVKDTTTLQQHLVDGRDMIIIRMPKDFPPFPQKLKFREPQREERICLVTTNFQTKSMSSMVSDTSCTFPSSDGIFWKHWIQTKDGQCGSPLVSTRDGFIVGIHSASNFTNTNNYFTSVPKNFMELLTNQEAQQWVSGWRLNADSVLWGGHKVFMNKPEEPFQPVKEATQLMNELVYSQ
B2: unnamed (protein)
chain: B1 chain with V64L, S143G
B3: unnamed (protein)
chain: B1 chain with N52V, S143G
B4: TEV protease variant 3 (S219N, T17S, N68D, I77V; N-terminal poly-histidine tag) (protein)
chain: B1 chain with V64L
B5: TEV protease variant 5 (S219N, L56V, N68D, S135G; N-terminal poly-histidine tag) (protein)
chain: B1 chain with S25T, V85I, S143G

Molecular target: TEV substrate

Row | Protein | TEV Substrate Cleavage (%), 30 minute [%] | TEV Substrate Cleavage (%), 60 minute [%] | TEV Substrate Cleavage (%), 120 minute [%]
1 | B1 | 90.8 | 96.8 | 97.2
2 | B2 | 96.6 | 97.8 | 97.7
3 | B3 | 74.2 | 93.3 | 96.1
4 | B4 | 96.5 | 97.7 | 98.1
5 | B5 | 95.6 | 97.8 | 95.6

Where a chain is given by its changes, count along the chain named. Names and notes keep the numbering of the source.
